Experimental data as given in US10428101B2, “Preparation of glycosphingosines” (The Regents of the University of California, priority 2013, dated 2019).
Marks after values point to notes of the source that are not given here.

The chains behind the UniProt entries cited, without tags or fusion partners. Where a name states a change or a piece, a line headed by the entry shows the natural chain unless it says otherwise.
UniProt P14769: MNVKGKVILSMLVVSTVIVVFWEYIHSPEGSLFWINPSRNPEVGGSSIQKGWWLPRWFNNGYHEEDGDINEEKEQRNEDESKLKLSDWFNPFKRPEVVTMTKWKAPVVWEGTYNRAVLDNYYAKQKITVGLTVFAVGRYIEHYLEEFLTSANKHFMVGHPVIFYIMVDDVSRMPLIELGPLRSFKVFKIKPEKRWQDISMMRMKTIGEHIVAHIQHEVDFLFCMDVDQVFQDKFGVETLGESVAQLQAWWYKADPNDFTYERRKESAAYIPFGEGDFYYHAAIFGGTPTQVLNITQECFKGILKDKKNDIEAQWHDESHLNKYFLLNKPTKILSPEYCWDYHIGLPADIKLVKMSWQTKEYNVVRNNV

Each substance was assayed against bovine α1-3-galactosyltransferase (α1-3GalT) (Bos taurus, UniProt P14769) (assay: One-pot four-enzyme α1-3-galactosylation of fluorous-tagged lactoside acceptors (EcGalK, BLUSP, PmPpA, α1-3GalT), conversion by TLC/ImageQuant). Settings: acceptor lactoside to Galα1-3 product; OPME galactosylation pH 7.0; assayed at 15 h; TLC and ImageQuant 5.2.

| Substance | Conversion (%) |
| --- | --- |
| LacβProNH—C6F13 [Compound 3] | 60 ± 0.5^[c] % |
| LacβProNH—C3F7 [Compound 4] | qt.^[c] |
| LacβProNH-HEG-C6F13 [Compound 8] | 69 ± 1.0^[c] % |
| LacβProNH-HEG-C8F17 [Compound 6] | 66 ± 1.0^[c] % |
| LacβProNH-TEG-C6F13 [Compound 7] | 71 ± 0.5^[c] % |
| LacβProNH-TEG-C8F17 [Compound 5] | 81 ± 8.0^[c] % |
| LacβProNH-C8F17 [Compound 2] | 10 ± 0.0^[c] % |
